Values quoted from earlier work in PMC5488175, “A New Methodology for Incorporating Chiral Linkers into Stapled Peptides” (Chembiochem, 2017).

Settings: cited from earlier work
Description: The A isomers of peptides stapled with linker 1, with the except ...

wild‐type p53_17–29 peptide: wild-type p53 peptide, residues 17–29
Helicity reported for the wild-type peptide: 10%
